# Biological target: JAK1 (Homo sapiens, UniProt P23458)
# By UniProt entry, the sequences of proteins in these tests, tags left out. Residues count along the entry.
# UniProt P23458, 875-1153 limits assumed: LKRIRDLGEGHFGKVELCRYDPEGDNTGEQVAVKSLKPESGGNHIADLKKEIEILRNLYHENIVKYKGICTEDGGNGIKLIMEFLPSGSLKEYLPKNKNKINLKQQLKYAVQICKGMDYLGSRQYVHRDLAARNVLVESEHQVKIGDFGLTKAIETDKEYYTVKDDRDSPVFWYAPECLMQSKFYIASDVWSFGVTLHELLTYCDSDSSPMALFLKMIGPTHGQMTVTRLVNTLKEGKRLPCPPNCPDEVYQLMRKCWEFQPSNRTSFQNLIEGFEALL
# Assay: In vitro kinase inhibition assay, JAK1 kinase domain (JH1) with STAT5b substrate peptide
# Format: biochemical
# Details: JAK1 JH1, in vitro kinase reaction; unit inferred
# Procedure: Protein kinase assays, including high throughput kinase assays are known in the art as described in, e.g., in Babon et al. (2013) and Von Ahsen et al. (2005). In one exemplary embodiment 130 μM STAT5b peptide (SEQ ID NO:18 RRAKAADGYVKPQIKQVV) is incubated with 5 nM human JAK1 (see SEQ ID NO:11 for corresponding amino acid sequence) at 25° C. for 30-60 min in 20 mM Tris pH 8.0, 100 mM NaCl, 5 mM 2-mercaptoethanol, 0.2 mg ml^−1 bovine serum albumin, 2 mM MgCl2, 100 μM ATP and 1 μCi γ-[^32P]ATP. Recombinant trimeric complex CIS-SH2-Elongin B-Elongin C (see SEQ ID NOs:7, 14, and 15 for the corresponding amino acid sequences) is present at concentrations ranging from 0-30 μM. After incubation, the reaction is spotted onto P81 phosphocellulose paper and quenched in 5% H3PO4. The paper is then washed (4×200 ml, 15 min) with 5% H3PO4 and exposed to a phosphorimager plate. Quantitation is performed using phosphorimager software and IC50 curves are then calculated based on integrated pixel counts.
# Kinase inhibition assays were performed essentially as described (Babon et al., 2012). […] Quantitation was performed using Fuji software and IC50 curves calculated using Graphpad Prism.
molecule,measurement,value
"CIS-ΔN34: human CIS lacking the N-terminal 34 residues, in complex with elongins B and C (protein, UniProt Q9NSE2 35-258, looked up, fragment, complex with elongins B and C, human CIS lacking the N-terminal 34 residues, in complex with elongins B and C) QPLPAGAFLEEVAEGTPAQTESEPKVLDPEEDLLCIAKTFSYLRESGWYWGSITASEARQHLQKMPEGTFLVRDSTHPSYLFTLSVKTTRGPTNVRIEYADSSFRLDSNCLSRPRILAFPDVVSLVQHYVASCTADTRSDSPDPAPTPALPMPKEDAPSDPALPAPPPATAVHLKLVQPFVRRSSARSLQHLCRLVINRLVADVDCLPLPRRMADYLRQYPFQL",IC50,~96.8 µM

# — patent US11104735B2, “Inhibition of cytokine-induced SH2 protein in NK cells” (The Walter and Eliza Hall Institute of Medical Research, priority 2015, dated 2021)
